Results on 1 compound are retold here after ChEMBL document CHEMBL1121956, “Potential antitumor agents. 37. Organophosphorus derivatives of 9-anilinoacridine” (1982).

In one experiment the test system is P388. Kind of experiment: Percentage increase in life span was measured for P-388 cells in culture after intraperitoneal administration of a dose of 38 mg/kg. As to conditions: Mus musculus.
A further experiment relates to Nucleic Acid. Briefly: […] association constant for DNA binding to poly (dA.dT). In kind it is nucleic-acid assay. The essentials: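 Association constant for binding to the synthetic polynucleotide poly(dA-dT). Measured by a method described in earlier work.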

A word on the ILS: it is the gain in survival time of treated over control animals, in per cent. High values mean much gain in survival, low ones little gain in survival.

Consider `COP(C)(=O)Nc1ccc(Nc2c3ccccc3nc3ccccc23)cc1` (configuration not stated), for which the ILS in the experiment with P388 worked out at 49%. The compound also came in with a Log K in the experiment with Nucleic Acid of 6.34.
